Assay results reported in patent publication US20240327430A1 (Breakpoint Therapeutics GmbH, priority 2023, published 2024).

Chains of the proteins cited; added tags and fusions are not shown. Residues count along the entry.
UniProt O75417, 67-894 limits assumed: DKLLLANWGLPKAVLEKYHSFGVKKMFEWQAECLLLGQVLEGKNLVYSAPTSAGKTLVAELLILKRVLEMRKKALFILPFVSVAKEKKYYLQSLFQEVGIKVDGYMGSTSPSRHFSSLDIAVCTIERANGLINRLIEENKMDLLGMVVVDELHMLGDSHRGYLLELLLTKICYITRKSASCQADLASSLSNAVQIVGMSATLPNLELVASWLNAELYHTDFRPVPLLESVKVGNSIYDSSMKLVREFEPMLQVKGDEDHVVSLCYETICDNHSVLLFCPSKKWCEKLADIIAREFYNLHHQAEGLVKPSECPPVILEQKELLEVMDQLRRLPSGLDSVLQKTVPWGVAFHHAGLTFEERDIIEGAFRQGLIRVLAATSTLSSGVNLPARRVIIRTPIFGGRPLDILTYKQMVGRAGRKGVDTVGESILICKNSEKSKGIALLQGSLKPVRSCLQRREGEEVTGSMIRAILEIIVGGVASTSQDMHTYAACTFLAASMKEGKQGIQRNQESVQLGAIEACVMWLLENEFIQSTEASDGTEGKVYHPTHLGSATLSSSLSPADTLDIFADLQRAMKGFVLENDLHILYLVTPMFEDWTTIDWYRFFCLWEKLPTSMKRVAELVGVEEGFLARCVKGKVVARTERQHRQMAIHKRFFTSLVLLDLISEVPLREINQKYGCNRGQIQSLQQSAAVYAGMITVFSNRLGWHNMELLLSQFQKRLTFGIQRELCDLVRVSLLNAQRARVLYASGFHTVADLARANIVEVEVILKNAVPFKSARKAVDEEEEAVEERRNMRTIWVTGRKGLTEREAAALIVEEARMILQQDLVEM

Target: truncated Polθ protein (Polθ-Hel containing the helicase domain (67-894)) (Homo sapiens (Human), UniProt O75417)
Assay: Polθ ATPase assay (Biological Assay 1, ADP-Glo luminescence)
Conditions: read-out: Polθ ATPase assay IC50; Table B; compounds of Experimental Part B, in vitro
Protocol: The Polθ ATPase assay was used to evaluate inhibitors of Polθ ATPase activity, in vitro. Experiments were performed using a truncated Polθ protein (Polθ-Hel containing the helicase domain (67-894), ATP and a DNA single strand Oligo (5′-CTGTCCTGCATGATG-3′) in the Polθ assay buffer (20 mM Tis-HCl (pH 8.8), MgCl2 5 mM, tween20 0.01%, NP40 0.01%, BSA 0.01%, DTT 1 mM). 2 μL of assay buffer containing Pole-Hel protein (0.5 nM) and DNA substrate (500 nM) was transferred into assay ready plates, containing 0.04 μL of compounds diluted in DMSO. After a 30 minutes incubation at 23° C. in the dark, the reaction was triggered by adding 2 μL of ATP (60 μM), in assay buffer. After 60 minutes at 23° C., 4 μl of ADP-Glo™ Reagent (Glo 1) was added followed by 40 minutes of incubation, then 8 μl of ADP-Glom kinase Detection Reagent (Glo 2) followed by 60 minutes of incubation at 23° C. Luminescence was then measured using Tecan F200 infinite plate reader. Raw data were analysed using GeneData to generate IC50 values.
The Polθ ATPase assay described in Biological Assay 1 above was used to evaluate inhibitors of Polθ ATPase activity for the compounds described in the Experimental Part B above, in vitro.

COc1ccc(C#N)cc1-c1cc(C)ncc1C(=O)Nc1nc2ccc(N3CCCCC3=O)nc2s1
IC50: < 100 nM
